Source: patent US20120195934A1, “POLYMERIC GEL DELIVERY SYSTEM FOR PHARMACEUTICALS” (priority 2002, published 2012)

Settings: pellet in dialysis bag, plasma/0.1 M phosphate buffer pH 7.4 release medium, 37° C., HPLC

Q: Which “intact MDM in release medium” value does the source give for morphine-diclofenac maleate [MDM] here?
A: No intact MDM was detectable
